Assay results from patent publication US9956192B2, “Selective histone deactylase 6 inhibitors” (H. Lee Moffitt Cancer Center and Research Institute, Inc., priority 2012, dated 2018).

By UniProt entry, the sequences of proteins in these tests, tags left out.
UniProt Q13547, whole entry: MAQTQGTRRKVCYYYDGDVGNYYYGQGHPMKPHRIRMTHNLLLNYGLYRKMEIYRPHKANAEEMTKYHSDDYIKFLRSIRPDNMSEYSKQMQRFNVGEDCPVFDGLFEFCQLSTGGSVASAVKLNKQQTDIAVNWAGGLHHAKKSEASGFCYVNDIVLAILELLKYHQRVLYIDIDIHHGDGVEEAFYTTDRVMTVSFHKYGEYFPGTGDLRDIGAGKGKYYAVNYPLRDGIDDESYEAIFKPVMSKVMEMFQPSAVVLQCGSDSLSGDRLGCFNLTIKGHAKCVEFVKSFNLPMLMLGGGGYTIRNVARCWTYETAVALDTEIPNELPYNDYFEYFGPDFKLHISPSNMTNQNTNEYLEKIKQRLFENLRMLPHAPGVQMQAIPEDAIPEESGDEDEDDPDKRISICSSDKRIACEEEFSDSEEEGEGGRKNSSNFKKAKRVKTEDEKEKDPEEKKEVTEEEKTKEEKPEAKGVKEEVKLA

Legend:
[1] = target: human, recombinant full-length HDAC1 (Homo sapiens (Human), UniProt Q13547); assay: HDAC inhibition assay, HDAC1; type: biochemical
[2] = system: B16 murine melanoma cells; assay: B16 melanoma cell growth inhibition assay (MTS); type: cell-based

CCCCN(Cc1ccc(C(=O)NO)cc1)C(=O)Nc1ccccc1 [Compound 5g, 4-((1-butyl-3-phenylureido)methyl)-N-hydroxybenzamide]
reduction in activity at HDAC1 compared to MGCD0103 [1]: 30 fold | growth inhibition of B16 melanoma cell line (in words) [2]: capable of inhibiting the growth of B16 melanoma cell line
